{"source": "patent US9585878B2", "about": "“Treatment of BDNF-related disorders using laquinimod” (TEVA PHARMACEUTICAL INDUSTRIES, LTD., priority 2009, dated 2017)", "origin": "cited, not measured here", "molecules": {"B1": {"name": "interferon-β 1a: MS treatment cited from Sarchielli, 2007 (protein, UniProt P01574 22-187, looked up)", "Interferon beta": "MSYNLLGFLQRSSNFQCQKLLWQLNGRLEYCLKDRMNFDIPEEIKQLQQFQKEDAALTIYEMLQNIFAIFRQDSSSTGWNETIVENLLANVYHQINHLKTVLEEKLEKEDFTRGKLMSSLHLKRYYGRILHYLKAKEYSHCAWTIVRVEILRNFYFINRLTGYLRN"}}, "test_system": "BDNF", "settings": "MS patients, even after 12 months of treatment; cited from earlier work", "data": [{"molecule": "B1", "values": [{"measurement": "Increase in plasma BDNF levels", "result": "did not show an increase"}]}]}
